Assay results published in publication PMC9675574 (JCI Insight, 2022).

Target: T1, mouse trypsin isoform T20 (anionic trypsin) (Mus musculus, UniProt P07146)
T1 construct: made in house; host or cells: Escherichia coli BL21(DE3)
T1 sequence (P07146 24-246): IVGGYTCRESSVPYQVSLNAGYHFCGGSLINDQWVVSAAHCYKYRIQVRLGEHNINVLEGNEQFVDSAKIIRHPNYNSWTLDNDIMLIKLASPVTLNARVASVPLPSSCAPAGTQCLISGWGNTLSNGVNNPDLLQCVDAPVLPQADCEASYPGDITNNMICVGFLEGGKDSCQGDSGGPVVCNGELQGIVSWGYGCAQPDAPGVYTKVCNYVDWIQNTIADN
Experiment: Competitive inhibition kinetics of trypsin, GPR-pNA substrate
Type: biochemical
Settings: Ki dabigatran, Individual fit, mean ± SD, n = 3

In the case of [H]/N=C(/N)c1ccc(NCc2nc3cc(C(=O)N(CCC(=O)O)c4ccccn4)ccc3n2C)cc1 [dabigatran], the Ki is reported as 33.6 ± 4.8 nM.
